Results: US10259815B2, “Gabaergic ligands and their uses” (UWM Research Foundation, Inc., priority 2015, dated 2019)

Sequences of proteins named here, by UniProt entry; tags and fusion partners are left off. Residues count along the entry.
UniProt P18507, 40-475 limits assumed: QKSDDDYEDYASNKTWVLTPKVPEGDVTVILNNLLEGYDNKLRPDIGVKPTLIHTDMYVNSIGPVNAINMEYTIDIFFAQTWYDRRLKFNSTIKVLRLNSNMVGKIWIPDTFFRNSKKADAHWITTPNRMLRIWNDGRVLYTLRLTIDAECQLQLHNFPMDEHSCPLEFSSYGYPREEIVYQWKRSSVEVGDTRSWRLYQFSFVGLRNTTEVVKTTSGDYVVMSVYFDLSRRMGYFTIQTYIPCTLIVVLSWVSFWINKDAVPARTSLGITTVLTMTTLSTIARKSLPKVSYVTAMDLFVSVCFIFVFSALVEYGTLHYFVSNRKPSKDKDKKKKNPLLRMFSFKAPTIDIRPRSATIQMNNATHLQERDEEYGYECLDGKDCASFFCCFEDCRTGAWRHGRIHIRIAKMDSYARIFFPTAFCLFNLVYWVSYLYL
UniProt P34903, 29-492 limits assumed: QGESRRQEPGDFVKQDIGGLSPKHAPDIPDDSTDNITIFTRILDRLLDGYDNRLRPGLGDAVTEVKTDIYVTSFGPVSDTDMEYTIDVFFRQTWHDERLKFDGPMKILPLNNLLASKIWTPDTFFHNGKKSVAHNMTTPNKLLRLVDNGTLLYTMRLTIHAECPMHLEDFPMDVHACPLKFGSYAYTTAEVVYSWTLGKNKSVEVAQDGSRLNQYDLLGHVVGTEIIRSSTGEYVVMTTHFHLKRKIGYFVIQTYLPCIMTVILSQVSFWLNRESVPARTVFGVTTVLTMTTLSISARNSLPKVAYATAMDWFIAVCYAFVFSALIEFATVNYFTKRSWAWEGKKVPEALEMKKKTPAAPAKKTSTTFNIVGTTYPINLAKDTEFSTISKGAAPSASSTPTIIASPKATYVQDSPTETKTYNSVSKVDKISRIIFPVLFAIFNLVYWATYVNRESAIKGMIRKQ
UniProt P28472, 26-473 partner limits assumed: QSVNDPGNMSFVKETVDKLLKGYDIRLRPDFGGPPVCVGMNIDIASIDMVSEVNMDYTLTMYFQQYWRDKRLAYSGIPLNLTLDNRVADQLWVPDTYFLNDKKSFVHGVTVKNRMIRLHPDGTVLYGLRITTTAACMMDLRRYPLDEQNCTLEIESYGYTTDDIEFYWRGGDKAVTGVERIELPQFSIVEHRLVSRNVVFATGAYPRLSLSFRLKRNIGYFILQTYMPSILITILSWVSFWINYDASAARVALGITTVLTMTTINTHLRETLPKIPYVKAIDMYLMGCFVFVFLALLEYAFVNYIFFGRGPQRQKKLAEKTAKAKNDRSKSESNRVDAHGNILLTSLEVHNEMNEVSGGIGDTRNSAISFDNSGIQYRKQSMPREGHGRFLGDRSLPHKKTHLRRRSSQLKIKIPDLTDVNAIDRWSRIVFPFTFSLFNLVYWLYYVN

How the values were obtained:
[1] = target: α3, β3, γ2 GABA A receptor (Homo sapiens, UniProt P18507+P34903); test: FLIPR functional assay, α3 GABAA receptor subtype in HEK-293 cells; format: cell-based; settings: read-out: α3 Binding EC50; FLIPR membrane potential, potentiation of GABA EC20
[2] = Liver microsomal stability, human; settings: 37° C., 4 μM compound, 30 minutes
[3] = Liver microsomal stability, dog; settings: 37° C., 4 μM compound, 30 minutes
[4] = Liver microsomal stability, mouse; settings: 37° C., 4 μM compound, 30 minutes
[5] = Liver microsomal stability, rat; settings: 37° C., 4 μM compound, 30 minutes
[6] = Pharmacokinetics and brain concentration after 10 mg/kg P.O. dose, rats; settings: 10 mg/kg oral dose
[7] = tested on: Male NIH Swiss mice; test: Marble burying assay (anxiolytic); format: in vivo
Procedure: FIG. 9 are graphs showing the number of marbles buried for each dose of compound in the marble burying assay for A) HZ-166 and KRM-II-81; B) MP-III-085, KRM-II-82 and KRM-II-18B; C) MP-III-080 and KRM-III-78; D) KRM-III-59; E) KRM-III-66 and KRM-III-65; F) KRM-III-79 and KRM-III-67. Male NIH Swiss mice (n=10) were dosed i.p. with vehicle (1% carboxymethyl cellulose) or one of the test compounds (10 or 30 mg/kg) 30 minutes prior to being tested in the marble burying assay.
The marble burying assay is designed to measure the anxiolytic-effect of a compound. When mice are nervous, they will bury marbles. As there becomes a decrease in amount of marbles buried, the better anxiolytic effect of a compound. Herein, KRM-II-81 is shown to be a better anxiolytic than HZ-166, which is a published anxiolytic (Fischer et al. Neuropharmacology, 2010, 59, 612).
The marble burying assay is used to determine the anxiolytic activity of a given compound. Mice are placed in a tub containing 20 marbles placed over a bed of sawdust. Defensive burying (Broekkamp 1986) is the natural reaction for the mice. […]
Experiments were carried out by the methods described in Li et al. (Life Sciences 2006, 78, 1933-1939). […] The number of marbles buried (⅔ covered with sawdust) was counted and submitted to inter-observer reliability assessment.

## Brc1ccc2c(c1)C(c1ccccc1)=NCc1c(-c3cnco3)ncn1-2
[1]
  EC50: 115 nM
[2]
  Human Liver microsome stability (reported in % remaining): 78 % remaining
[3]
  Dog Liver microsome stability (reported in % remaining): 89 % remaining
[4]
  Mouse Liver microsome stability (reported in % remaining): 70 % remaining
[5]
  Rat Liver microsome stability (reported in % remaining): 77 % remaining

## C#Cc1ccc2c(c1)C(c1ccccn1)=NCc1c(-c3nc(CC)no3)ncn1-2
[2]
  Human Liver microsome stability (reported in % remaining): 91 % remaining
[3]
  Dog Liver microsome stability (reported in % remaining): 97 % remaining
[4]
  Mouse Liver microsome stability (reported in % remaining): 92 % remaining
[5]
  Rat Liver microsome stability (reported in % remaining): 94 % remaining
[6]; brain
  free fraction: 11%
[6]; one hour after dose, rats stated for KRM-II-81
  brain unbound concentration ([brain]u): 340 ng/g
[7]; 10 mg/kg i.p.
  marbles buried at 10 mg/kg: show a reduction
[7]; 10 and 30 mg/kg i.p.
  sedation observed in marble burying assay: sedation was also observed

## C#Cc1ccc2c(c1)C(c1ccccn1)=NCc1c(-c3nc(C)no3)ncn1-2
[2]
  Human Liver microsome stability (reported in % remaining): 81 % remaining
[3]
  Dog Liver microsome stability (reported in % remaining): 93 % remaining
[4]
  Mouse Liver microsome stability (reported in % remaining): 85 % remaining
[5]
  Rat Liver microsome stability (reported in % remaining): 93 % remaining
